Results as given in patent US20130129675A1, “INTERFERON THERAPIES IN COMBINATION WITH BLOCKADE OF STAT3 ACTIVATION” (BOARD OF REGENTS, THE UNIVERSITY OF TEXAS SYSTEM, priority 2009, published 2013).

B1: IFN-β: Type I interferon used as stimulus of STAT3 phosphorylation (protein, UniProt P01574 22-187, looked up)
Interferon beta: MSYNLLGFLQRSSNFQCQKLLWQLNGRLEYCLKDRMNFDIPEEIKQLQQFQKEDAALTIYEMLQNIFAIFRQDSSSTGWNETIVENLLANVYHQINHLKTVLEEKLEKEDFTRGKLMSSLHLKRYYGRILHYLKAKEYSHCAWTIVRVEILRNFYFINRLTGYLRN

How the values were obtained:
[1] = system: STAT3 in HaCaT keratinocytes; test: pSTAT3 level in HaCaT keratinocytes (MSD chemiluminescent detection); assay type: cell-based, human
Protocol: Prior to experiments, the DMEM medium was changed to KGM-SFM containing rEGF and bovine pituitary extract for 12 hours, and the cells then exposed to various stimuli for 30 minutes. Cell lysates were extracted in IP lysis buffer were diluted in MSD extraction buffer and 25 uL of the cell lysate containing 10 ug protein was used in the analysis via chemiluminescent detection (MSD Technology). To test for inhibition by WP1220 (WP), cells were pre-incubated with WP1220 prior to the addition of IFN α.

[2] = system: STAT3 in HH, HuT78 and MJ CTCL lines; test: STAT3 tyrosine 705 phosphorylation in CTCL lines; assay type: cell-based, human; conditions: serum starved 18 hours, stimuli 30 minutes (FIG. 7)
Protocol: To determine whether IFN alpha and beta were able to selectively phosphorylate STAT3 in other cell types. Studies were conducted in a range of other biologically relevant cell types. In these experiments, cells were grown in media supplemented with 10% FBS, and then serum starved for 18 hours and exposed to various stimuli for 30 minutes. […] (FIG. 10), and induced caspase-3 and PARP cleavage in these cells (Table E5)

[3] = system: STAT3 and Jak2 phosphorylation in SUP-T1 lymphoma cell line; test: Cytokine signalling in SUP-T1 lymphoma cell line; assay type: cell-based; conditions: SUP-T1 lymphoma cell line (data not shown)

Molecule	Relative level of pSAT3 ([1]; HaCaT cells, stimuli for 30 minutes)	tyrosine phosphorylation of STAT3 (tyrosine 705) [2]	STAT3 activation in keratinocytes [1]	STAT3 and Jak2 phosphorylation [3]
IL-2: cytokine, stimulus in HaCaT pSTAT3 test	+ (+=less than 200 fold)			
B1		selectively stimulates tyrosine phosphorylation of STAT3	potently induce STAT3 activation	potently induce STAT3 but not Jak2 phosphorylation
